According to EP1721601A1, “Use of taurine for enhancing lipid synthesis in the epidermis” (Henkel Kommanditgesellschaft auf Aktien, priority 2005, dated 2006):

Experiments:
Type in all cases: cell-based
[1] = test system: Prostaglandin E2 (PGE2); test: Irritation markers in vitro: PGE2 release of SDS-damaged epidermis models; details: 1 h 0,18% SDS, rinsed, then 24 h topical emulsion (C: 0.1 Gew.-% Triamcinolonacetonid; E: 1 Gew.-% Taurin; B: no further treatment); mean +/- SEM, n=3; unbehandelt 0,84, Vehikel 1,40
Protocol: (§1) Epidermismodelle wurden 1 Stunde lang topisch mit einer wässrigen Lösung von 0,18% SDS in Wasser inkubiert. Diese Behandlung resultierte erwartungsgemäß in einer deutlichen Verminderung der zellulären Vitalität, einer gesteigerten Freisetzung von LDH (Lactatdehydrogenase), Interleukin 1-alpha (IL-1alpha) und Prostaglandin E2 (PGE2). Anschließend wurden die Epidermismodelle abgespült und für weitere 24h unter topischer Applikation folgender Emulsionen inkubiert: C: Kortikoid-ratiopharm® Creme (0.1 Gew.-% Triamcinolonacetonid); D: 1,5 Gew.-% Behenylalkohol + 2,75 Gew.-% Arachidylalkohol; E: 1,5 Gew.-% Behenylalkohol + 2,75 Gew.-% Arachidylalkohol +1 Gew.-% Taurin. Zur Kontolle wurden Epidermismodelle unbehandelt kultiviert (A) oder verblieben nach Abspülung der SDS-Lösung unbehandelt (B). Die Daten repräsentieren die Mittelwerte +/-SEM (n=3).

[2] = test system: Epidermismodelle; test: Irritation markers in vitro: viability and LDH release of SDS-damaged epidermis models; details: 1 h 0,18% SDS, rinsed, then 24 h topical emulsion (C: 0.1 Gew.-% Triamcinolonacetonid; E: 1 Gew.-% Taurin; B: no further treatment), mean +/- SEM, n=3
Protocol: as §1

[3] = test system: Interleukin 1-alpha (IL-1alpha); test: Irritation markers in vitro: IL-1alpha release of SDS-damaged epidermis models; details: 1 h 0,18% SDS, rinsed, then 24 h topical emulsion (C: 0.1 Gew.-% Triamcinolonacetonid; E: 1 Gew.-% Taurin; B: no further treatment); mean +/- SEM, n=3; unbehandelt 15, Vehikel 387
Protocol: as §1

CCCCCCCCCCCCOS(=O)(=O)O [SDS, Natriumdodecylsulfat, reference compound]
PGE2-Freisetzung [1]: 6,69 +/- 0,68 ng/ml | LDH-Freisetzung ([2]; unbehandelt 0,22, Vehikel 1,95): 2,21 +/- 0,35 OD 492nm | Vitalität ([2]; unbehandelt 100, Vehikel 66): 53 +/- 12% | IL-1alpha-Freisetzung [3]: 395 ± 106 pg/mL
